Test results from PubChem BioAssay AID875 (National Center for Advancing Translational Sciences (NCATS), 2007).
This is a selection; strong and weak results do not stand in their true shares. Activity calls are given as the source filed them. Calls come from the whole dose curve; as a rule, active = well fitted inhibition curve with a large enough effect; inconclusive = small, poorly fitted or top-dose-only effect; inactive = no such curve, though single readings can be large or run the other way.

Protein sequences, listed by entry. Tags and fused reporters are not part of them.
UniProt P38398, whole entry: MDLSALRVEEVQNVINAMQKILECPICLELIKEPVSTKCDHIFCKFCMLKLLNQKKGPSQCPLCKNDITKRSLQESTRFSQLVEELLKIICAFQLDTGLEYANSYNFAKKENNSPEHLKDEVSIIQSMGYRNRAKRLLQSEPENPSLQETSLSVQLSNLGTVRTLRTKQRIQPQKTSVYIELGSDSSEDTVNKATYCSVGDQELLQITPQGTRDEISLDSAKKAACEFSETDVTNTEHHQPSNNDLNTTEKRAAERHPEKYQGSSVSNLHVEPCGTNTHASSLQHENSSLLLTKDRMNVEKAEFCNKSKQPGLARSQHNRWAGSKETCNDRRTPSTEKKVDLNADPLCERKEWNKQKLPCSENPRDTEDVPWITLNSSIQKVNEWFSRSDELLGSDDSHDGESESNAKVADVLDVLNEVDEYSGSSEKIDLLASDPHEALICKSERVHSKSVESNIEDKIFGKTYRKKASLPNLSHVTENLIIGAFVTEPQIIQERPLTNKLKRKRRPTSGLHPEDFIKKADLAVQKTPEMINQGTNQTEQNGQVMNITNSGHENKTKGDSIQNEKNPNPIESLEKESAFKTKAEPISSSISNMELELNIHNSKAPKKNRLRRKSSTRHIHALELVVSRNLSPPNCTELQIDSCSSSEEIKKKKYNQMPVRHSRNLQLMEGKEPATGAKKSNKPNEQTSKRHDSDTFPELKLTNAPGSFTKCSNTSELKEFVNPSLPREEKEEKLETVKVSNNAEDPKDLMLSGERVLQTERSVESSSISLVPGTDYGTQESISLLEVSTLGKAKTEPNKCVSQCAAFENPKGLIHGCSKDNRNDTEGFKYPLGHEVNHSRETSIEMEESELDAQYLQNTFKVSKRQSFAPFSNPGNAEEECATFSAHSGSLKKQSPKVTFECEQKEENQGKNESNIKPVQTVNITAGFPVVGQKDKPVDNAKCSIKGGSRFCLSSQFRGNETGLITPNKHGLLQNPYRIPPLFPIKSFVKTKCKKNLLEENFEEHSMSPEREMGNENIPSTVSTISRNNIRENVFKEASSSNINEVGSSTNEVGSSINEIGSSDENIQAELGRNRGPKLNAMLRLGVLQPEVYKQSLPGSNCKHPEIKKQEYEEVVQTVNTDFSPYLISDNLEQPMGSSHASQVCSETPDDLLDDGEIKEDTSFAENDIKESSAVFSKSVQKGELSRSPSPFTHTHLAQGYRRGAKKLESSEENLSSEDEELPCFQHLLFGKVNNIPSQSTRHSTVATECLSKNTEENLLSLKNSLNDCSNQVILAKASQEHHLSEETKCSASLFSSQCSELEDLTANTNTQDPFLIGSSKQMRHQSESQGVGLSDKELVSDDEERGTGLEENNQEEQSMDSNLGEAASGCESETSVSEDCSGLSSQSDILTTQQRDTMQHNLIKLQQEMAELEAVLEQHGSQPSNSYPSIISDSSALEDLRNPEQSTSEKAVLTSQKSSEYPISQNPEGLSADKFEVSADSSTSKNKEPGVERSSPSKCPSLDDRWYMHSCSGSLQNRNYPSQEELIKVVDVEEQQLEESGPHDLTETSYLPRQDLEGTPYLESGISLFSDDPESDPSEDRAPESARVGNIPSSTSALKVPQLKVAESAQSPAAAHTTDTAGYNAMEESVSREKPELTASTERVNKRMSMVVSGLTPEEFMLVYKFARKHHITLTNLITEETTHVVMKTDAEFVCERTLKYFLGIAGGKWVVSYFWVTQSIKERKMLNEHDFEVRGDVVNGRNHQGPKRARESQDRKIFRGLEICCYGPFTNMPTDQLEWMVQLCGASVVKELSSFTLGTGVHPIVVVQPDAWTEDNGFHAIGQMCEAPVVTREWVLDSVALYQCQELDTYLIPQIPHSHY

target: Breast cancer type 1 susceptibility protein (Homo sapiens) (UniProt P38398); experiment: qHTS Assay for Inhibitors of BRCT-Phosphoprotein Interaction (Green Fluorophore); conditions: BRCA1 BRCT-phosphopeptide binding, green fluorescence polarization; at 76.9 µM (top of the series) unless noted;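 note: plate controls were peptide without protein for full effect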
Protocol: NIH Molecular Libraries Screening Centers Network [MLSCN]
NIH Chemical Genomics Center [NCGC]
PI Name: Natarajan, Amarnath; University of Texas
A complex of BRCT (C-terminal portion of BRCA1, MW ~35 kDa, His-tagged) and fluorescently labeled pBACH1 phosphorylated 10 aa peptide fragment of BACH1, a helicase implicated in DNA repair, is incubated with library members. Inhibitors of BRCT-pBACH1 binding are detected by a decrease in the fluorescence polarization (FP) of the fluorophore. In order to minimize the effect of fluorescence artifacts and to increase the overall robustness of the screen, the compound library members were incubated in separate reactions with fluorescein labeled probe-protein complexes. Protein and labeled probes were supplied by Dr. Amarnath Natarajan, Department of Pharmacology and Toxicology, University of Texas Medical Branch Galveston, TX.
Assay Buffer: 16mM Na2HPO4, 4 mM NaH2PO4, 150 mM NaCl, 1 mM EDTA, 1 mM DTT, 0.02% NaN3, and 0.01% Tween 20 at pH 7.3.
100 nM labeled decapeptide/250 nM protein in columns 1, 2, 5 - 48. Titration of unlabeled decapeptide control (from 10 mM, then 1:2 dilution in duplicate) pin-transferred to column 2, rows 1 to 16. Column 1 is neutral.
Three uL of reagents were dispensed to 1536-well Greiner black solid-bottom plates. Compounds and controls (23 nL) were transferred
via Kalypsys PinTool. The plates were incubated for 12 min at room temperature, and then read on ViewLux (Perkin-Elmer) High throughput CCD imager using FITC for the fluorescein-labeled decapeptide probe polarization filter sets. During dispense, reagent bottles were kept submerged into 4 deg C water bath and all liquid lines were covered with aluminum foil to minimize probe and protein degradation. All screening operations were performed on a Kalypsys robotic system (Kalypsys, Inc., San Diego, CA) containing one RX-130 and two RX-90 anthropomorphic robotic arms. The timing and order of assay plates passing through the screening system were adjusted such that each compound library plate was assayed against the fluorescein- and rhodamine-labeled assay systems at immediately adjacent time points.

Structure (SMILES)	activity change, negative = inhibition
O=C(O)C1(Nc2ccccc2)CCN(Cc2ccccc2)CC1	inactive: 0.0469% [at 15.4 µM]
CCOc1ncccc1C(=O)NCC1(N2CCOCC2)CCCCC1	inactive: 0.326%
CCC(CO)(C(=O)OC1CN2CCC1CC2)c1ccccc1 (stereo unspecified)	inactive: -3.34%
Fc1ccccc1NC1CCN(Cc2ccccc2)CC1	inactive: -2.61%
ClCCOP(OCCCl)OCCCl	inactive: -0.82%
N/C(=N\O)c1c(N)no[n+]1[O-]	inactive: 0.068%
CCOP(=O)(Cl)Cl	inactive: -1.17%
NC1CCCCC1.NP(=O)(O)N(CCCl)CCCl	inactive: -1.1% [at 15.4 µM]
N#CC1(Nc2ccccc2)CCN(CCc2ccccc2)CC1	inactive: -1.79%
COc1ccc(NC2CCN(CCc3ccccc3)CC2)c(OC)c1	inactive: -0.437%
O=C(OC1CN2CCC1CC2)C1c2ccccc2Oc2ccccc21 (stereo unspecified)	inactive: -3.57%
